According to paper PMC5059758, “Structural characterization of antibiotic self-immunity tRNA synthetase in plant tumour biocontrol agent” (Nature Communications, 2016):

System: LeuRSAt Triad (P45T/N105A/M633Q)
Assay: Aminoacylation assay, LeuRSAt Triad mutant
Type: biochemical, A. tumefaciens
Details: kinetic inhibition experiments

## CC(C)[C@@H](O)[C@H](O)C(=O)NP(=O)(O)OC[C@@H]1C[C@H](O)[C@H](n2cnc3c(N)ncnc32)O1 [TM84]
  TM84 concentrations to which the enzyme was resistant: up to 500 nM
